In patent US20120115869A1, “TETRAZOLE DERIVATIVES” (MERCK SERONO S.A., priority 2009, published 2012):

Target: T1, CRTH2 (DP2) (Homo sapiens, UniProt Q9Y5Y4)
T1 construct: host or cells: CHO cells
T1 sequence (Q9Y5Y4 1-395): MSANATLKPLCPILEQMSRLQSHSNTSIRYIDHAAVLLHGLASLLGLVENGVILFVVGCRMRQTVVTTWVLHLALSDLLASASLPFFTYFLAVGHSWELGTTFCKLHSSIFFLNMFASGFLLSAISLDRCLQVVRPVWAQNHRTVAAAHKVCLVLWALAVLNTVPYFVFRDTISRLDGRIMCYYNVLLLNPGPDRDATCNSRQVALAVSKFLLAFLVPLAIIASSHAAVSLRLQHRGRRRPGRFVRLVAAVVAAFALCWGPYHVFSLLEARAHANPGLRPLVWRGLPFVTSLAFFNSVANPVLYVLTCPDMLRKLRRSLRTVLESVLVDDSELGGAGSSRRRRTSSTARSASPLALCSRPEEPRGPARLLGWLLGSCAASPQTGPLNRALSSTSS
Test: Radioligand binding Scintillation Proximity Assay ([3H]PGD2, hCRTH2-CHO cell membranes)
Details: 1.5 nM [3H]PGD2, hCRTH2-CHO cell membranes, SPA
Experimental: Adherent CHO cells expressing hCRTH2 (Euroscreen, Belgium) were cultured in 225 cm^2 cell culture flasks (Corning, USA) in 30 ml of medium. After two rinses of phosphate buffered saline (PBS), cells were harvested in 10 ml of PBS containing 1 mM EDTA, centrifuged at 500×g for 5 min at 4° C. and frozen at −80° C. The pellet was re-suspended in 50 mM Tris-HCl, pH 7.4, 2 mM EDTA, 250 mM Sucrose, containing protease inhibitor cocktail tablets, (Complete EDTA-free, Roche, Germany) and incubated 30 min at 4° C. Cells were disrupted by nitrogen cavitation (Parr Instruments, USA) at 4° C. (800 p.s.i. for 30 min), and centrifuged at 500×g for 10 min at 4° C. Pellet containing nuclei and cellular debris was discarded and supernatant was centrifuged 60 min at 4° C. at 45000×g. Membrane pellet was re-suspended in storage buffer (10 mM HEPES/KOH pH 7.4, 1 mM EDTA, 250 mM sucrose, protease inhibitor cocktail tablets) using Dounce homogenization and frozen in liquid nitrogen, and stored at 80° C.
Non-specific binding was determined in the presence of 10 μM PGD2 (Cayman, USA). Competing Compounds of Formula (I) were diluted in dimethylsulphoxide so that the total volume of dimethylsulfoxide was kept constant at 1% dimethylsulphoxide (Me2SO). […]

IC50: 28 nM
SMILES: CCC(=O)N(Cc1cccc(O)c1)c1cc(F)cc(-c2nnn[nH]2)c1 [Example 84, N-[3-fluoro-5-(1H-tetrazol-5-yl)phenyl]-N-(3-hydroxybenzyl)propanamide]
